{"source": "patent US10751387B2", "about": "“Pharmacological therapy for neuronopathic Gaucher disease” (priority 2016, dated 2020)", "key": {"CBE-N2a cells": {"tested_on": "CBE-N2a cells", "assay": "Seahorse mitochondrial function assay (OCR) in cells", "format": "cell-based, mouse", "conditions": "CBE-N2a cells vs untreated CBE-N2a; dantrolene 12.5 μM, G6 0.8 μM"}, "GCase": {"tested_on": "GCase", "conditions": "12.5 uM, 5 days"}}, "note": "Read-outs that look alike come from different tables or passages of the source."}
{"compound": "O=C1CN(/N=C/c2ccc(-c3ccc([N+](=O)[O-])cc3)o2)C(O)=N1", "note": "[Dantrolene]", "values": [{"measurement": "Oxygen Consumption Rate (OCR: ATP production, basal respiration, maximal respiration)", "setting": "CBE-N2a cells", "result": "significantly improved"}, {"measurement": "GCase activity compared to untreated cells", "setting": "GCase; 4L/4L (V493L/V394L) fibroblasts", "result": "significantly increased"}, {"measurement": "GCase activity compared to untreated cells", "setting": "GCase; 4L;C* fibroblasts", "result": "significantly increased"}, {"measurement": "GCase activity compared to untreated cells", "setting": "GCase; 9H/9H (D409H/D409H) fibroblasts", "result": "significantly increased"}, {"measurement": "GCase activity compared to untreated cells", "setting": "GCase; 9V/9V (D409V/D409V) fibroblasts", "result": "did not show an increase"}, {"measurement": "GCase activity compared to untreated cells", "setting": "GCase; WT fibroblasts", "result": "significantly increased"}]}
